scFv variants of Ab-14 (light chain) against a SARS-CoV-2 spike peptide

Reference: Li et al. 2023, doi:10.1038/s41467-023-39022-2. File: FLAb, binding data.

All variants were tested on one target, the spike HR2 peptide PDVDLGDISGINAS (SARS-CoV-2).

Ab-14 is the parent antibody, in scFv form: VH, then the linker GGGGSGGGGSGGGGS, then VL. The heavy chain is unchanged in all variants.
VH: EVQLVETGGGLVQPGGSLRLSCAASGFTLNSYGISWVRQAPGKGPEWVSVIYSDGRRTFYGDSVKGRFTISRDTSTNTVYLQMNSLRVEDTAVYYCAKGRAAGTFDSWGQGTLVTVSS
VL: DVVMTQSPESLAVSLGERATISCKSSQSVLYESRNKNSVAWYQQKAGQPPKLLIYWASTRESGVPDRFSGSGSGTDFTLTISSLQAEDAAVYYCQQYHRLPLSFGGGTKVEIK

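The variants were designed computationally from a first round of random CDR variants and then made and measured. Group labels follow the data file (Ctrl: baseline library sampled from a position-specific scoring matrix, with some repeated check sequences; Rand: our label for a block that the file lists under HC and that is probably the random mutants of the ten best first-round binders; En: ensemble of fine-tuned language models; GP: Gaussian process model; HC: hill climbing; Gen: genetic algorithm; Gibbs: Gibbs sampling; a sequence that several methods proposed may carry one label only). The assay is AlphaSeq: two haploid yeast populations carry antibody and antigen on their surface. Binding brings cells together so that they mate, and sequencing counts the barcode pairs among the diploids. A regression on co-assayed BCL2-family reference pairs converts the normalised counts of each replicate to an apparent Kd. Mating was done six times.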

Each variant is given by its three light chain CDRs, as the data file delimits them; those of the parent are KSSQSVLYESRNKNSVA, WASTRES, QQYHRLPLS. Values are log10 of the apparent Kd in nM; lower means stronger binding. Averages over replicates are reported, and they cover detected replicates only. A pair that was not seen in any replicate is written "not detected"; this usually means weak binding, but a binder can also be missed. The authors averaged sequences with at least three values out of six and counted those with two or fewer as poor binders.

CDR-L1,CDR-L2,CDR-L3,group,"log10 Kd (nM), mean",replicates with signal
KLSCSQLYESRNKNSVA,EASTRES,QQYHRLPLS,GP_Gen,-0.03,6 of 6
KSSQSVIYESRNKNSVA,MASKRES,QQYHRLPLS,Ctrl,1.75,5 of 6
SMSNAQINPDNWKNSIA,DAEHVAY,QQYSRLPLT,En_Gibbs,0.21,6 of 6
KMSQSNNYEGRNKNSVA,WASTRES,QQYHRLVLS,Ctrl,1.37,6 of 6
KITALMRFEQKNSNNIA,EVSMRTK,QQYYRLPLS,En_Gen,0.40,6 of 6
KVLQSVMYESRNKNSVA,HASTRED,QQYHQLPLS,GP_HC,0.80,6 of 6
KLRHHNLDFYEVENSIA,GESMRAH,QQYYRLPLN,En_Gibbs,0.98,1 of 6
KSSQMVLYESRNKNSVA,WATTRES,QQYHRLPLS,Ctrl,not detected,0 of 6
NISQMIFTETKNVNNVA,QTSTREE,QDYHRLPLS,En_HC,-0.15,6 of 6
NLGGEDFNDTRGMKAVA,DVSEVGD,QHYSRLPLS,En_Gibbs,1.06,6 of 6
KSSQSVLYESRNGNSVA,WASTRES,QQYHRLPLE,Ctrl,2.08,1 of 6
KVSQSYLYESRNKNSVA,EASTRES,QQYHRLPLS,GP_Gen,0.28,6 of 6
ILSQSMLYESRMKNSVA,NASQRWM,QQYHRLPLS,GP_Gibbs,0.11,6 of 6
NLNTEYVTGTSNWNNIA,HGSMVEA,QQYFQLPIG,En_Gibbs,1.04,6 of 6
KSAQSVLYESRYKNSVA,WDSTRES,QQYHRLPLS,Ctrl,not detected,0 of 6
KYSQSVLYESRDKNSVA,NAATRES,QQYHRLPLS,Ctrl,0.72,6 of 6
KLYEMSYELSGKTHSVA,DNSTRGD,QQYFRLPLD,En_Gen,2.76,2 of 6
KSSISYLYESRNMNSVA,EASTREQ,QQYHRLPLS,GP_HC,-0.14,6 of 6
KISFQYRYEQLAKNNIA,EVVTRLK,QQYHRLPLS,En_HC,1.33,6 of 6
KVSQSWLYESRNSNSVA,NASQRES,QQYHRLPLS,GP_Gen,0.47,6 of 6
KIELSNSVSLRGTRAIA,QGSERAH,QQYHRLPLT,En_Gibbs,0.03,6 of 6
KLSQSYGYESTNSNSVA,DASTRED,QQYHRLPLS,GP_Gibbs,0.23,6 of 6
NVGQLMDGETRNRNNVA,HQSTRED,QHYHRLPLS,En_HC,1.25,5 of 6
MISQLMQMGQFAINSVA,QASIRNE,QQYDRLPLM,En_Gen,1.66,3 of 6
KIQYQYRFEQLSKNNIA,EVVTRLK,QQYHRLPLS,En_HC,1.85,6 of 6
KSSQSVLYEERNKNSVA,WASTRES,QQYHRTPLS,Ctrl,not detected,0 of 6
KLTNVTGTEKVRGNNVA,EMETRER,QQYNRLPLS,En_Gen,0.83,6 of 6
KVQEMMAFLSSNRNSVA,DNSTRGS,QQYHRLPLS,En_HC,1.39,5 of 6
KMSQSVDGLDRNWNSVA,YASTREM,QQYHRLPLS,GP_Gibbs,0.28,6 of 6
TISMITSSFTQNINNVA,EVSTRLN,QQYDRLPLA,En_Gen,-0.10,6 of 6
KLENSELYQSRNKNSVA,NASTRYS,QQYHRLPLS,GP_Gibbs,-0.20,6 of 6
TLYGLSNSMSKNKNNVA,EMSTREP,QQYDRLPLV,En_Gen,0.90,6 of 6
KMSQSVLYESRNKNSVA,NASQRMS,QQYHRLPLS,GP_Gen,-0.18,6 of 6
MLSQMWALGMKAKNSVA,QASMRFN,QQYERLPLI,En_Gen,0.52,6 of 6
KLSQSVLYESRNKNSVA,WANTRES,QQYHRLVLC,Ctrl,0.77,4 of 6
KSSQTVLYESRNKNSVA,WASTREV,QQYHRLPLS,Ctrl,2.73,5 of 6
TLHANIEYGGGTWKSIA,DNTQRAD,QYYQRLPLG,En_Gibbs,3.20,2 of 6
KVSQSQLYESRNKNSVA,NASTRES,QDYHRLPLS,GP_Gen,0.05,6 of 6
KSSQSVLFESRNKDSVA,DASQRES,QQYHRLPLS,Rand,0.34,6 of 6
HITYGMMVHGRHSSSIA,QAEERAK,QQYDRLPLS,En_Gen,0.91,6 of 6
KLYMGVDYGDRNKNQVA,HASQRES,QQYHRLPLS,GP_Gibbs,0.74,6 of 6
HSSQSVLYESRNKNSVA,NGSTRES,QQYHRLPLS,GP_HC,0.64,6 of 6
KMRVSALQGIYRADSIA,STDIRVL,QQYHHLPLS,En_Gibbs,1.09,6 of 6
RQSQSVLYESRNKNSVA,DASTRES,QQYYRLPLS,Rand,-0.02,6 of 6
IISQSMLYEPRNWNSVA,NASTRWS,QQYHRLPLS,GP_Gibbs,0.60,6 of 6
ALGDVTRMESNKKNSIA,DMSTREN,QQYHRLPLS,En_HC,0.11,6 of 6
KFSQSELYEERNQNSVA,GASQRLS,QQYHRLPLS,GP_Gibbs,-0.13,6 of 6
TISASANYESTNKNSVA,ELTTRGS,QQYERLPLS,En_HC,2.62,2 of 6
KHSWSVELESRLKNSVA,NASTREW,QQYHRLPLS,GP_Gibbs,1.67,6 of 6
KLQQSVQYESRNQNAVA,EASQREE,QQYHRLPLS,GP_Gibbs,-0.37,6 of 6
KSSISVLYESMNKNSVA,NGSTRES,QQYHRLPLS,GP_HC,0.53,6 of 6
KLLQEVTGHSRNKYSVA,HNSTRED,QQYDRLPLS,En_HC,3.04,1 of 6
MIGQLYNMGTFAINSVA,QASIRNE,QQYDRLPLI,En_Gen,0.90,6 of 6
KLAYSEPYESRNKNSVA,DASTRSS,QQYHRLPLS,GP_Gibbs,0.41,6 of 6
KIGMTLNQLYQKANNVA,DLVEREN,QQYHRLPLS,En_Gen,0.69,6 of 6
QLDWYNSTATAAANSVA,GVAQRMN,QQYMRLPLM,En_Gibbs,0.08,6 of 6
KVYQSSLYESRNDNNVA,NASLRES,QQYHRLPLS,GP_Gibbs,0.07,6 of 6
KVNQLMNLEQMNIKSVA,HTSTREN,QQYHRLPLS,En_HC,0.18,6 of 6
TLGDVTRMESNKRNSIA,DMSNRAD,QQYHRLPLS,En_HC,-0.24,6 of 6
KVSESQLYESRNFNSVA,NASTREE,QQYHRLPLS,GP_Gibbs,0.31,6 of 6
TLGDVTRMESNKKSSIA,DMSNRAQ,QQYHRLPIS,En_HC,0.27,6 of 6
QLQFEDVQYGVNEQAIA,EENQRMQ,QQYFRLPLI,En_Gibbs,0.97,6 of 6
KIGMTLNQLMHQKQNVA,DLVEREN,QQYHRLPLS,En_Gen,0.00,6 of 6
KVQQSELGESRHDNSVA,NASKRES,QQYHRLPLS,GP_Gibbs,0.24,6 of 6
NVGNEDPGQWYMHDSIA,GSSLRAE,QQYWRLPLL,En_Gibbs,0.70,5 of 6
KFSQQVLYEDRQANSVA,NASQRES,QQYHRLPLS,GP_Gibbs,0.12,6 of 6
KLQQQTLYESRNKNSVA,QASTREE,QQYHRLPLS,GP_HC,0.10,6 of 6
KLSFSVLYGKRNKNSVA,QASQRMS,QQYHRLPLS,GP_Gibbs,0.87,6 of 6
KSSQAVLDESRAKNSVA,WASTRET,QQPHRLPLS,Ctrl,not detected,0 of 6
KLPQSHLYESRNKNSVA,NASTRCS,QQYHRLPLS,GP_Gen,-0.06,6 of 6
TLSNSTDLESVHKNSIA,DLMTRES,QQYHRLPLS,En_HC,0.75,6 of 6
IMSDSQERDASILRNIA,DQTTRAM,QQYARLPLS,En_Gibbs,0.34,6 of 6
KSSQSVLYESRNKNSVA,DASTREE,QQYHRLPWS,Ctrl,1.57,6 of 6
MIGQMLGWESNKIHSVA,QANLREE,QQYDRLPLE,En_Gen,1.17,6 of 6
KLANSTLYESRQKNSVA,WASTRES,QQYHRLPLS,GP_HC,0.97,6 of 6
HITYGMMLAGRHSSSIA,QAEERAK,QQYDRLPLS,En_Gen,1.18,6 of 6
TISQMHFIESKNRNNVA,EMTTREN,QDYDRLPLS,En_HC,1.10,6 of 6
KWSQSWLYESRNKNSVA,TASTRES,QQGHRLPLS,Ctrl,not detected,0 of 6
KSSQSVLYESNNKNSVA,WAVTRES,QQYHRLPLS,Ctrl,1.30,6 of 6

13 of these entries, quoted again:

{"CDR-L1": "KSSQSVIYESRNKNSVA", "CDR-L2": "MASKRES", "CDR-L3": "QQYHRLPLS", "group": "Ctrl", "log10 Kd (nM), mean": "1.75", "replicates with signal": "5 of 6"}
{"CDR-L1": "TLGDVTRMESNKRNSIA", "CDR-L2": "DMSNRAD", "CDR-L3": "QQYHRLPLS", "group": "En_HC", "log10 Kd (nM), mean": "-0.24", "replicates with signal": "6 of 6"}
{"CDR-L1": "KLYMGVDYGDRNKNQVA", "CDR-L2": "HASQRES", "CDR-L3": "QQYHRLPLS", "group": "GP_Gibbs", "log10 Kd (nM), mean": "0.74", "replicates with signal": "6 of 6"}
{"CDR-L1": "KLLQEVTGHSRNKYSVA", "CDR-L2": "HNSTRED", "CDR-L3": "QQYDRLPLS", "group": "En_HC", "log10 Kd (nM), mean": "3.04", "replicates with signal": "1 of 6"}
{"CDR-L1": "NVGQLMDGETRNRNNVA", "CDR-L2": "HQSTRED", "CDR-L3": "QHYHRLPLS", "group": "En_HC", "log10 Kd (nM), mean": "1.25", "replicates with signal": "5 of 6"}
{"CDR-L1": "KLAYSEPYESRNKNSVA", "CDR-L2": "DASTRSS", "CDR-L3": "QQYHRLPLS", "group": "GP_Gibbs", "log10 Kd (nM), mean": "0.41", "replicates with signal": "6 of 6"}
{"CDR-L1": "KLENSELYQSRNKNSVA", "CDR-L2": "NASTRYS", "CDR-L3": "QQYHRLPLS", "group": "GP_Gibbs", "log10 Kd (nM), mean": "-0.20", "replicates with signal": "6 of 6"}
{"CDR-L1": "HITYGMMLAGRHSSSIA", "CDR-L2": "QAEERAK", "CDR-L3": "QQYDRLPLS", "group": "En_Gen", "log10 Kd (nM), mean": "1.18", "replicates with signal": "6 of 6"}
{"CDR-L1": "RQSQSVLYESRNKNSVA", "CDR-L2": "DASTRES", "CDR-L3": "QQYYRLPLS", "group": "Rand", "log10 Kd (nM), mean": "-0.02", "replicates with signal": "6 of 6"}
{"CDR-L1": "NLGGEDFNDTRGMKAVA", "CDR-L2": "DVSEVGD", "CDR-L3": "QHYSRLPLS", "group": "En_Gibbs", "log10 Kd (nM), mean": "1.06", "replicates with signal": "6 of 6"}
{"CDR-L1": "QLQFEDVQYGVNEQAIA", "CDR-L2": "EENQRMQ", "CDR-L3": "QQYFRLPLI", "group": "En_Gibbs", "log10 Kd (nM), mean": "0.97", "replicates with signal": "6 of 6"}
{"CDR-L1": "MIGQMLGWESNKIHSVA", "CDR-L2": "QANLREE", "CDR-L3": "QQYDRLPLE", "group": "En_Gen", "log10 Kd (nM), mean": "1.17", "replicates with signal": "6 of 6"}
{"CDR-L1": "KLSQSYGYESTNSNSVA", "CDR-L2": "DASTRED", "CDR-L3": "QQYHRLPLS", "group": "GP_Gibbs", "log10 Kd (nM), mean": "0.23", "replicates with signal": "6 of 6"}

The parent sequence was in this pool as ten entries: three were never detected, three once, and four in most replicates, with averages from 0.34 to 2.37. Nonspecific signal, from three strains lacking the peptide, appeared in 4% of pairings of all light chain designs, centred on 2.64 (5% of these signals below 1.59); values are not corrected for it. A sequence measured in both rounds can read differently, since the two assays cover different ranges.